Earlier results on one substance are cited in patent US6444726B1, “Biocidal compositions” (Clariant Finance (BVI) Limited, priority 1995, dated 2002).

For the series the following is noted: 25 ° C.

The term Solubility denotes the concentration that dissolves in the medium under given conditions. As to Silver Iodide, the Solubility is 2.6 ng/mL.
